# Source: US20040259244A1, “Methods, compositions, and growth and differentiation factors for insulin-producing cells” (priority 2002, published 2004)
# System: conversion of stem cells into insulin producing cells
# Format: cell-based
# Conditions: statistical analysis of insulin content of supernatants, 3 donors, combinatorial array in alginate
substance,measurement,value
"CGRP alpha: Calcitonin Gene Related Peptide (ACDTATCVTHRLAGLLSRSGGVVKNNFVPTNVGSKAF; Calcitonin gene-related peptide 1; UniProt P06881 83-119, looked up)",effect on the conversion of stem cells into insulin producing cells,potential negative effect
